According to PubChem BioAssay AID488922 (Johns Hopkins Ion Channel Center, 2010):
The entries are a selection whose mix differs from that of the whole data set. Activity calls are given as the source filed them.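 Rule for the calls: active = ratio B-score over 3 SD below the library mean, with starting fluorescence within 5 SD of its mean; inactive = the rest, inconclusive results apart.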

Protein sequences, listed by entry. Tags and fused reporters are not part of them. Lines headed by an entry give the natural chain unless they say otherwise; changes in a name come on top.
UniProt Q9NPC2: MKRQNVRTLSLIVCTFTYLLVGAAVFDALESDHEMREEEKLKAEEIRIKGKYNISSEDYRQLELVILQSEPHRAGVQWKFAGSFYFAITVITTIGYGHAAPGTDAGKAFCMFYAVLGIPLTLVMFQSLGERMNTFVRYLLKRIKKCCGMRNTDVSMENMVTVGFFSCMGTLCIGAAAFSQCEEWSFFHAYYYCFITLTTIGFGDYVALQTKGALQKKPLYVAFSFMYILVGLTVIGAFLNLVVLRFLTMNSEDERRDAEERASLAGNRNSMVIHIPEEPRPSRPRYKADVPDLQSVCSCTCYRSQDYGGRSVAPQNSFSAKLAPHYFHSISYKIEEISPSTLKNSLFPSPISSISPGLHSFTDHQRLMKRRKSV

What follows are molecules tested against Potassium channel subfamily K member 9 (Homo sapiens) (UniProt Q9NPC2) (assay: KCNK9 potassium channel inhibitors, primary screen, HEK293 cells, thallium flux (AID 488922;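 note: negative B-score means less thallium flux so channel inhibition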)). Conditions: HEK293 KCNK9, FluxOR thallium flux fluorescence; at 10 µM; hits give low values.
`O=P(Nc1nccs1)(c1ccccc1)c1nc2ccccc2s1` (stereo unspecified) was tested, and the B-score was active: -12.8.
